Assay results taken from patent publication US9725695B2, “Stem cell defined media for xeno-free and feeder free conditions and uses thereof” (The Regents of the University of California, priority 2010, dated 2017).

Legend:
[1] = system: H-9 cells; assay: Kinetic growth of H-9 cells on feeders in PB12/RCCD media formulations (Integral, Px,max, μ) with Statistica effect/regression models; assay type: cell-based, human; settings: codified values
[2] = system: H-9 cells; assay: as above; assay type: cell-based, human; parameters: Effect on Integral / Effect on μ: unit not given here
Excerpt: A Placket-Burman matrix of 12 independent conditions (PB12) was used (Table 1), according to the Design of Experiments (DOE) methodology for the screening of 8 factors (RODRIGUES & IEMMA, 2005). […] Since this first step, the PB12, is a screening step, whenever it was possible the concentration of the factor was set as zero. • Condition 0: represents the central condition of the DOE, being the mean value obtained from averaging the values for levels −1 and +1. In addition to the central condition, the “main” central condition is defined as a state when all factors are set to condition 0.
In total, 14 different conditions were examined: 12 related to the PB12 matrix, 1 related to the “main” central condition that was performed in quadruplicates for the error estimation and a control condition with KSR. The basal media was: a 1:1 mixture 1:1 of DMEM and Ham's F12 (DMEM/F12; Mediatech, Manassas, Va.; catalog number 10-092), 1% NEAA, 110 μM β-mercaptoethanol (BME; Sigma-Aldrich, St. Louis, Mo.; catalog number M7522), 50 μg/mL gentamicin sulfate (Mediatech, Manassas, Va.; catalog number 30-005-CR) and 8 ng/mL of FGF-2 (Peprotech, Rocky Hill, N.J.; catalog number 100-18B). FGF-2 was reconstituted in PBS at 100 ug/mL and was added to the media for a final concentration of 8 ng/mL at the start of the culture. During the culture period, additional FGF-2 (8 ng/mL) was added directly to the media on a daily basis.
Every 24 hours one well from each condition and 4 wells from the main central condition were enzymatic dissociated and counted with the help of an automatic counter (NucleoCounter NC-100), for an unbiased measure of cell growth. In that way, by the end of the 5 days, a kinetic curve was obtained for every single condition (FIG. 1). Readouts like integral of cells (integral; defined as area below the curve), maximum productivity (Px,max; defined as the highest value obtained from dividing cell number by time) or and specific global ( ) growth rate (or speed of cell growth obtained from the formula dX/dt=pX) were calculated in order to perform the statistics comparing all different curves (Table 3).
Through the estimation of the effects from the least square method and the calculation of the errors obtained by the replicates performed on the main central condition (formulation 13), “t” was calculated as the ratio of effect and error.
By comparing the calculated “t” value with “t” values from a Student's “t” distribution table for a bilateral distribution, the p-value was obtained for each parameter in every readout. A priori, establishing a confidence interval of 90%, it is possible to identify, on Table 4, statistically significant (bolded) effect of a supplement on the Integral, Px,max and μ readout.
Aiming to understand better the contribution of each protein in the formulation of the media, an optimization step was performed using the Three-Variable Rotatable Central Composite Design (RCCD; Rodrigues and lemma, 2005). The concentration range of each supplement was the same as given in Table 2 for the PB12 design, with the same concentration for the level 0, −1, and +1 condition. Re-measurement at these levels provided further confidence to the previously measured results. In addition, two more levels, −1.68 and +1.68, were included to increase the number of measurements as recommended by the RCCD methodology.
The basal media was: a 1:1 mixture 1:1 of DMEM and Ham's F12 (DMEM/F12; Mediatech, Manassas, Va.; catalog number 10-092), 1.5% NEAA, 8.46 mg/L citric acid, 0.89×10^−4 mM sodium selenite, 2 mM glutamine (total of 4.5 mM), BME 110 μM, gentamicin sulfate 50 μg/mL and 8 ng/mL of FGF-2.
As before, kinetics growth of H-9 cells were obtained and readouts like Integral and Px, max were calculated (Table 6).
Through the use of Statistica software (StatSoft, Tulsa, Okla.), a second order mathematical model was generated in order to evaluate the real contribution of each supplement (Table 7).

[3] = 1st RCCD, codified values, R^2 = 80.0%
[4] = PB12, level −1 to +1 (ranges Table 2), least square method

Albumin: CellPrime rAlbumin AF-S recombinant human albumin (Millipore); AF-G in the 4th RCCD
Regression coefficient (Quadratic), integral ([1]; 1st RCCD, R^2 = 86.4%): −4.80 | Regression coefficient (Linear), Px, max ([1]; 2nd RCCD, R^2 = 37.9%): 0.0001 | Regression coefficient (Quadratic), Px, max ([1]; 2nd RCCD, R^2 = 37.9%): −0.0084 | Regression coefficient (Linear), integral ([1]; 2nd RCCD, R^2 = 62.7%): 12.93 | Regression coefficient (Quadratic), integral ([1]; 2nd RCCD, R^2 = 62.7%): 0.38 | Regression coefficient (Linear), integral ([1]; 3rd RCCD, R^2 = 65.8%): 8.42 | Regression coefficient (Quadratic), integral ([1]; 3rd RCCD, R^2 = 65.8%): −1.49 | Regression coefficient (Linear), Px, max ([1]; 3rd RCCD, R^2 = 86.4%): 0.072 | Regression coefficient (Quadratic), Px, max ([1]; 3rd RCCD, R^2 = 86.4%): 0.0008 | Regression coefficient (Linear), Px, max ([1]; 4th RCCD, R^2 = 69.0%): 0.0022 | Regression coefficient (Quadratic), Px, max ([1]; 4th RCCD, R^2 = 69.0%): −0.0019 | Regression coefficient (Linear), integral ([1]; 4th RCCD, R^2 = 88.0%): 8.51 | Regression coefficient (Quadratic), integral ([1]; 4th RCCD, R^2 = 88.0%): −8.80 | Regression coefficient (Linear), Px, max [2, 3]: 0.0154 | Regression coefficient (Quadratic), Px, max [2, 3]: −0.0013 | Regression coefficient (Linear), integral ([2]; 1st RCCD, codified values, R^2 = 86.4%): 75.95 | Effect on Integral [2, 4]: 132.76 | Effect on Px, max [2, 4]: 0.0297 | Effect on μ [2, 4]: 0.0168
